Measurements: US20100105763A1, “PHARMACEUTICAL COMPOSITION, HEALTH FOOD COMPOSITION AND INOS INHIBITORS, CONTAINING THEOPEDERIN DERIVATIVES” (SEOUL NATIONAL UNIVERSITY INDUSTRY FOUNDATION, priority 2006, published 2010)

Protein sequences, listed by entry. Tags and fused reporters are not part of them.
UniProt P29477, whole entry: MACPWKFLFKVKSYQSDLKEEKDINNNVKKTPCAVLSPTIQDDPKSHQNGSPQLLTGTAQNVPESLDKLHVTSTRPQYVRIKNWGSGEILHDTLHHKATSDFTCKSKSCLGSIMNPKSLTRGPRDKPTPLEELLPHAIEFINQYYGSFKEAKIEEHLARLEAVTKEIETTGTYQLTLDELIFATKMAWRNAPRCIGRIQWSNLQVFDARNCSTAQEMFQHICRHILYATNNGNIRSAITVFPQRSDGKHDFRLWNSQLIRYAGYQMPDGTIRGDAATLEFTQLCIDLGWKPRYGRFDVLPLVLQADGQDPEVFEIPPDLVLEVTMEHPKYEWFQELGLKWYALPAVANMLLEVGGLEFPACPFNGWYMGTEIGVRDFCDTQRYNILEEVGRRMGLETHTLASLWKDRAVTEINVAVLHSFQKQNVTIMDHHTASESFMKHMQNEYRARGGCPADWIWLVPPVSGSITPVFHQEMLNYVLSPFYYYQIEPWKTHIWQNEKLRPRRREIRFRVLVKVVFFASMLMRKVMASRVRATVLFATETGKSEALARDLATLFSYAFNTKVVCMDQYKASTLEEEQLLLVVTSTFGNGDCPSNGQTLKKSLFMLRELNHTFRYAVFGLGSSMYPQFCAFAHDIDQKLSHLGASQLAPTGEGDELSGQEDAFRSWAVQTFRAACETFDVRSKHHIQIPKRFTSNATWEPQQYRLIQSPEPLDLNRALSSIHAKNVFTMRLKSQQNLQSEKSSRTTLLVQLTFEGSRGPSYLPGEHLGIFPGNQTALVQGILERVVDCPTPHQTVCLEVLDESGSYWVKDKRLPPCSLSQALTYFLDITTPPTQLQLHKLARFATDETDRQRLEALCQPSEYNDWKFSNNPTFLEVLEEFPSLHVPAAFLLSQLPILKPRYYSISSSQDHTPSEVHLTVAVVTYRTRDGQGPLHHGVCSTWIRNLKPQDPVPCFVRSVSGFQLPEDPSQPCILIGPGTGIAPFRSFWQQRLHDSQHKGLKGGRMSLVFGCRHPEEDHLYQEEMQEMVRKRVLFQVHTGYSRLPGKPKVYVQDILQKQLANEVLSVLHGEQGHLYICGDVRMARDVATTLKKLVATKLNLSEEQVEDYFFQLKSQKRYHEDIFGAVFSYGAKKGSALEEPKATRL

Key:
Raw264.7 = experiment: Cytotoxicity of theopederin derivatives; details: for cytotoxicity (in words): at the concentration of iNOS antagonistic activity; for Cytotoxicity: quantity type not stated, cell line presumably Raw264.7
Method: (§1) Inhibition assay was performed with the compounds (1) and (2), the most representative compounds among those amorphous pure theopederin derivatives (1)-(24), to examine the iNOS inhibitory activity. Particularly, leucocyte originated animal cells (Raw264.7) were cultured in dMEM supplemented with 10% bovine serum and 1% antibiotics for 12 hours in a 5% CO2 incubator. Lipopolysaccharide stimulating the iNOS expression and the compounds (1) and (2) were added thereto, followed by further culture for 12 hours. The amount of NO generated was investigated by measuring the color development by Griess reaction. In the meantime, iNOS inhibitor 1400W was used as a control.
Theopederin derivatives (1) and (2) were confirmed to have excellent iNOS antagonistic activity at a very low concentration without inducing cytotoxicity.

iNOS = iNOS (Mus musculus, UniProt P29477); experiment: iNOS inhibition assay: NO generated by lipopolysaccharide-stimulated Raw264.7 cells, Griess reaction; details: for iNOS antagonistic activity (in words): at a very low concentration; for CC50: read-out: iNOS (lC50), Raw264.7 cells, lipopolysaccharide stimulation, 12 hours culture with compound, NO by Griess reaction
Method: as §1

| Structure (SMILES) | cytotoxicity (in words) (Raw264.7) | Cytotoxicity (Raw264.7) [nM] | iNOS antagonistic activity (in words) (iNOS) | CC50 (iNOS) [µM] |
| --- | --- | --- | --- | --- |
| C=C1C[C@](OC)([C@H](O)C(=O)N[C@H]2OCO[C@H]3[C@@H]2O[C@H](CO)C(C)(C)[C@@H]3OC)O[C@H](C)[C@@H]1C | without inducing cytotoxicity | 116 | excellent iNOS antagonistic activity | 0.0026 |
| C=C1C[C@](OC)([C@H](O)C(=O)N[C@H]2OCO[C@H]3[C@@H]2O[C@H](C[C@H](O)CO)C(C)(C)[C@@H]3OC)O[C@H](C)[C@@H]1C | without inducing cytotoxicity | 120 | excellent iNOS antagonistic activity | 0.03 |
